{
  "source": "patent US20070105910A1",
  "about": "“Medicinal composition” (priority 2003, published 2007)",
  "test": "Repeated oral administration test for 10 days using rats: blood hemoglobin (Hb)",
  "type": "in vivo",
  "conditions": "SD rats, 8 weeks of age; before administration (baseline)",
  "protocol": "SD-Family rats (Crj:CD:IGS) of 8 weeks of age were divided into two groups; in one group, pioglitazone hydrochloride is orally administered at a dose of 240 mg/kg/day for 10 days forcibly through a gastric probe, and the in the other group, 240 mg/kg/day of pioglitazone hydrochloride and 100 mg/kg/day of benfotiamine were administered in the same manner. After termination of the administration, the blood was collected from the rats and the hemoglobin (Hb) value was determined. Then, the rats were killed, and their hearts were weighed (relative weight).",
  "note": "Counter-ions that a name gives are not always drawn.",
  "data": [
    {"smiles": "CCc1ccc(CCOc2ccc(CC3SC(=O)NC3=O)cc2)nc1", "note": "(stereo not shown) [Pioglitazone HCl, pioglitazone hydrochloride]", "values": [
      {"measurement": "Blood Hb conc. before administration", "value": 12.9, "unit": "g/dL"}
    ]}
  ]
}
